Source: patent US20130005651A1, “DEATH ASSOCIATED PROTEIN 1 VARIANTS AND USE THEREOF FOR MODULATING AUTOPHAGY” (YEDA RESEARCH AND DEVELOPMENT CO. LTD., priority 2010, published 2013)

How the values were obtained:
mTOR [1] = target: T1, mTOR (Homo sapiens, UniProt P42345); assay: In vitro kinase assay for mTOR activity; type: biochemical; details: mTOR immunoprecipitated from HEK293T cells, Torin1 50 nM, 20 min at 30° C.
T1 construct: endogenous in cells; host or cells: HeLa

mTOR [2] = target: T1, mTOR; type: cell-based

CCC(=O)N1CCN(c2ccc(-n3c(=O)ccc4cnc5ccc(-c6cnc7ccccc7c6)cc5c43)cc2C(F)(F)F)CC1 [Torin1]
phosphorylation of GST-4E-BP1 (Thr 37/46) by mTOR (mTOR [1]): attenuated
phosphorylation of His-DAP1 on Ser51 by mTOR (mTOR [1]; anti-phospho-Ser51 antibody): attenuated
phospho-Ser51 signal of DAP1 (mTOR [2]): decline
phosphorylation of p70S6K (Thr389), positive control (mTOR [2]): similarly affected
shift of DAP1 to the fast migrating form indicative of dephosphorylation of Ser3 (mTOR [2]): typical shift of DAP1 to the fast migrating form
